The text below walks through data of the Kinase Knowledgebase extract (Sharma et al. 2016).

SMILES strings stand for the structures.

What is called IC50 is the concentration at which inhibition is half-maximal. Lower therefore signals greater potency.

The target in this assay is CDK2 (human) (UniProt P24941). Kind of assay: Enzyme Assay.

Compound `CCC1(c2ccc(N/C=C3\C(=O)Nc4ccc5ncsc5c43)cc2)CCC(=O)NC1=O` (configuration not stated) had an IC50 of 30 nM.
`CC(=O)N(C)c1ccc(N/C=C2\C(=O)Nc3ccc4ncsc4c32)cc1`: the IC50 worked out at 30 nM. In other words, the double-digit nanomolar range.
